Results on three substances are retold here after patent publication US20090275634A1 (priority 2006, published 2009).

The subject of assay [1] is peritoneal macrophages derived from MyD88 KO mice. In words: MIP-2 secretion from peritoneal macrophages by ELISA, MyD88 KO mice. The assay is classed as cell-based, MyD88 KO mice (C57BL6 background). In general terms: In an ELISA, binding on a coated surface is turned into a signal by an enzyme label.
In assay [2] the test system is peritoneal macrophages. In words: Cytokine/chemokine secretion from peritoneal macrophages by ELISA, wild type mice. The following applies: for level of IL-6 in the supernatants of activated PMs / level of MIP-2 in the supernatants of activated PMs / level of TNF-α in the supernatants of activated PMs: LPS 0.1 μg/ml, CpG and CpG control 1 and 10 μg/ml (Example 4). The format is cell-based, C57BL6 mice.

Assay [3] deals with peritoneal macrophages from TLR9 KO mice. In words: Number of total and MAC-1 positive peritoneal macrophages by FACS, TLR9 KO mice. The following applies: after treatment. The assay is classed as cell-based. In general terms: In flow cytometry, cells or beads pass a laser one at a time.
The subject of assay [4] is peritoneal macrophages. In words: Number of total and activated (MAC-1) peritoneal macrophages by FACS, wild type mice. The format is cell-based, C57BL6 mice.
For assay [5], the system named is peritoneal macrophages derived from MyD88 KO mice. In words: Number of MAC-1 positive peritoneal macrophages by FACS, MyD88 KO mice. The assay is classed as cell-based, MyD88 KO mice (C57BL6 background). The following applies: 72 hr.
The subject of assay [6] is TNBS-induced colitis. In words: TNBS-induced colitis in mice, oral daily treatment; macroscopic disease score (Wallace criteria) and colon histology. The format is in vivo, BALB/C mice.

Take TCCATGACGTTCCTGACGTT: the “effect on MIP-2 levels in the supernatants of PMs” value in assay [1] is listed as “almost totally inhibited”. In assay [2], the “level of IL-6 in the supernatants of activated PMs” value is “strongly elevated”, the “level of MIP-2 in the supernatants of activated PMs” value is “strongly elevated” and the “level of TNF-α in the supernatants of activated PMs” value is given as “strongly elevated”. Moreover, the “levels of MIP-2 in the supernatants of PMs” value in assay [2] (WT mice (C57BL6), Example 5, MyD88 experiment) is listed as “elevated”. The “levels of MIP-2 in the supernatants of PM” value in assay [2] (control naïve C57BL6 mice, TLR9 experiment, CpG 1, 5 μg/ml, 24 or 72 hours) is “strongly elevated”. For the same substance, in assay [3], the “number of total and MAC-1 positive cells” value was “reduced significantly”. Further, the “number of MAC-1 positive cells” value in assay [4] (WT mice (C57BL6), Example 5, 72 hr) was “increased”. Besides, the “number of total cells or MAC-1 positive cells” value in assay [4] (naïve WT (C57BL6) mice, TLR9 experiment, 72 hrs, CpG 1 or 5 μg/ml) is “increased”. The “number of MAC-1 positive cells” value in assay [5] is listed as “reduced significantly”.
Consider 5′-CTGCCACGTTCTCCTGCA*C*C*-3′, for which the “protection from colitis symptoms (disease score, FIG. 3)” value in assay [6] (100 μg/Kg oral daily beginning one day before colitis induction and for the subsequent seven days) is “protected moderately”; in assay [6] (higher doses, 200 or 500 μg/Kg, oral daily beginning one day before colitis induction) it was “less effective”. Further, the “protection from colitis disease manifestation (disease score, FIG. 2)” value in assay [6] (oral daily beginning one day before colitis induction and for the next seven days, low doses, 10 to 100 μg/Kg) is recorded as “protected the animals from the disease manifestation”. Also, the “efficacy to alleviate colitis symptoms (disease score, FIG. 1)” value in assay [6] (oral once daily, 25 or 50 μg/Kg, beginning one day or two days after colitis induction, sacrifice 7 days after TNBS) is “prominent and comparable to that of Dexamethasone”.
For the substance TCCATGAGCTTCCTGAGCTT, in assay [2], the “level of IL-6 in the supernatants of activated PMs” value was “to a lower degree”, the “level of MIP-2 in the supernatants of activated PMs” value is “to a lower degree” and the “level of TNF-α in the supernatants of activated PMs” value was “to a lower degree”. Besides, the “number of total and activated peritoneal macrophages” value in assay [4] (72 hr, LPS 0.1 μg/ml, CpG and non-CpG control 1 and 10 μg/ml (Example 4)) is on record as “increased”.
